Experimental findings from patent US20090306091A1, “ANTIMALARIAL THERAPY USING A COMBINATION OF SYNTHETIC ARTEMISININ DERIVATIVE AND BISQUINOLINE DERIVATIVE” (priority 2006, published 2009) are described below.

For this data set, the system named is female rabbits. As to the kind of experiment: Embryo-fetal assessment study in female rabbits, oral administration (ICH guideline, GLP).

In the case of `CC(C)(N)CNC(=O)CC1CCC2(CC1)OOC1(O2)C2CC3CC(C2)CC1C3` (stereo not shown), the food consumption result (female rabbits, 30 mg/kg body weight/day) is on record as “slight reduction”. The “mortality/clinical signs, changes in mean body weight and post-implantation loss” value (female rabbits, 10 and 30 mg/kg/day) is “no mortality/clinical signs, changes in mean body weight and post-implantation loss”. Further, the “macroscopic findings and fetal anomalies” value (female rabbits, any dose level) was “No macroscopic findings and fetal anomalies”. Moreover, for the setting “up to and including a dosage of 90 mg/kg body weight/day”, the teratogenic potential entry is on record as “did not reveal any teratogenic potential”.
